Measured values taken from patent US20130022620A1, “ASSAYS AND METHODS PERTAINING TO PRE-AMYLOID INTERMEDIATES” (priority 2011, published 2013).

Protein sequences, listed by entry. Tags and fused reporters are not part of them. Residues count along the entry.
UniProt Q63495, 23-402: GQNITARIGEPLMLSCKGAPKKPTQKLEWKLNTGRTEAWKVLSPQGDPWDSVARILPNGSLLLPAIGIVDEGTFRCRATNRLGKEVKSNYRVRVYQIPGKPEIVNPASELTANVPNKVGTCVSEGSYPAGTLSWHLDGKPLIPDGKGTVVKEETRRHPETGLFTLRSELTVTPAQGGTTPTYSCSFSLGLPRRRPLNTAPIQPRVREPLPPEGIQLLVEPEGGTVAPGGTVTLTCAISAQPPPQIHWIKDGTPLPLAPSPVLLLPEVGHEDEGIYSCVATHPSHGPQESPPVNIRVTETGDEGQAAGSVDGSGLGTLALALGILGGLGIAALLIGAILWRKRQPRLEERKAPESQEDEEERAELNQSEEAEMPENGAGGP

Legend:
[1] = system: rat INS-1 β-cells; assay: AlamarBlue cell viability assay of β-cells; assay type: cell-based
Description: Transformed rat insulinoma-1 (INS-1) β-cells (which express RAGE) are a pancreatic beta cell line commonly used for studies of h-IAPP induced toxicity. INS-1 cells were grown in RPMI 1640 supplemented with 10% fetal bovine serum (FBS), 11 mM glucose, 10 mM Hepes, 2 mM L-glutamine, 1 mM sodium pyruvate, 50 μM β-mercaptoethanol, 100 U/ml penicillin, and […] streptomycin. Cells were maintained at 37° C./5% CO2.
(§1) Cyto-toxicity was measured by AlamarBlue assay. INS-1 β-cells were seeded at a density of 30,000 cells per well in 96-well plates and cultured for 24 hours prior to stimulation with IAPP. Human and rat IAPP were dissolved and incubated in 16 mM tris HCl (pH 7.4, 25° C.) prior to cell stimulation. AlamarBlue was diluted ten-fold in culture media and cells were incubated for 5 hours at 37° C. Fluorescence (excitation 530; emission 590 nm) was measured on a Beckman Coulter DTX880 fluorescent plate reader. Values calculated were relative to those of control cells treated with buffer only. All values represent means±SEM (n=3).
Changes in cell morphology were examined by light microscopy to provide a second method of evaluating cell viability. Transformed rat INS-1 beta cells were photographed immediately prior to assessment of toxicity by Alamar blue cell viability assays. Images were taken using an Olympus BX-61 light microscope.

[2] = system: mouse pancreatic islets; assay: AlamarBlue cell viability assay of pancreatic islets; assay type: cell-based; details: sRAGE added to h-IAPP at 1:1 molar ratio
[3] = system: MCP-1 and IL-1β mRNA expression; assay: qRT-PCR of MCP-1 and IL-1β mRNA in β-cells; assay type: cell-based, rat
Description: Assays for qRT-PCR were carried out in 6-well plates. Total cellular RNA was isolated from h-IAPP stimulated β-cells using Qiagen RNA isolation kit, and the quality of RNA samples was determined by measurement of 260:280 ratio. Only samples with a 260:280 ratio of 2.0 or higher were used for reverse transcription. RNA samples were also treated by RNAse-free DNAse to avoid genomic DNA contamination. One microgram of RNA from each sample was reverse-transcribed to cDNA using MCP-1 and IL-1β primers. Non-template negative controls were also performed to monitor non-specific reactions. RNA isolated from rat IAPP and non-h-IAPP treated beta cells were used as negative controls. Equal amounts of RNA were used in each qRT-PCR reaction, and 18S was used as the internal control for amplification at the same time. qRT-PCR reactions were carried out using an Applied Biosystems 7500 RealTime PCR machine. The relative mRNA contents were normalized using 18S and quantification was carried out using qRT-PCR Quantifier Software.

[4] = target: T1, RAGE (Rattus norvegicus, UniProt Q63495); assay: RAGE-block assay in beta cells; assay type: cell-based; details: 1:1 mixture of sRAGE/hIAPP, cells pre-treated with anti-RAGE IgG
T1 construct: Transformed rat insulinoma-1 (INS-1) β-cells (which express RAGE); endogenous in cells; host or cells: rat INS-1 insulinoma beta cells
Description: Beta cells were plated at a density of 30,000 cells per well in 96-well plate the night before the experiment. Cells were pre-treated with either anti-RAGE blocking IgG or control IgG for 2.5 hrs prior to 5 hrs stimulation with 14 uM h-IAPP toxic species or 1:1 mixture of sRAGE/hIAPP (28 micromolar total protein). hIAPP toxic species were produced by incubating a solution of 20 uM IAPP at room temp for 10 hrs. Prevention of formation of hIAPP toxic species was accomplished by reconstituting 20 micromolar dry hIAPP with a solution of 20 micromolar sRAGE.

[5] = target: T2, h-IAPP (Homo sapiens, UniProt P10997); assay: Inhibition of h-IAPP amyloid formation (thioflavin-T, TEM, difference CD); assay type: biochemical; details: for kinetics of h-IAPP amyloid formation (thioflavin-T): 1:2 molar ratio
T2 sequence (P10997 34-70 limits assumed): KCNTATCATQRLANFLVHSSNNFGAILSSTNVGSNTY
Description: Thioflavin-T fluorescence was used to monitor the time course of h-IAPP amyloid formation in the presence and absence of sRAGE. To identify which form(s) of h-IAPP interact with RAGE, sRAGE was added to h-IAPP at various time points during the h-IAPP amyloid formation reaction. Aliquots of the reaction mixture were analyzed by adding 100 uL aliquots of the amyloid formation reaction to 96-well plates containing 8 uL of 60 uM thioflavin-T solution at various incubation times after initiation of the amyloid formation reaction. Fluorescence was measured using a Beckman Coulter DTX880 fluorescent plate reader (excitation: 445 nm and emission: 485 nm). Final solution conditions contained 16 mM tris HCl and 65 μM thioflavin-T (pH 7.4). The peptide concentrations for the kinetic assays were 20 μM h-IAPP or rat IAPP, and 20 μM sRAGE. All values represent means±SEM (n=3).
CD measurements of IAPP, sRAGE and IAPP/sRAGE reactions were taken at various incubation times. Far-UV CD experiments monitor the development of secondary structure of h-IAPP species and give insight into the conformational requirement for IAPP/RAGE-binding. All CD experiments were performed on an Applied Photophysics circular dichroism spectrophotometer by directly transferring 300 μL of peptide solution from kinetic assays into a 0.1 cm quartz cuvette a few minutes prior to data collection. The CD spectra for sRAGE and tris HCl buffer was subtracted from all RAGE/IAPP mixtures. The final far-UV CD data was collected over the range of 190 to 260 nm. Final solution conditions contained 16 mM tris HCl (pH 7.4). The peptide concentrations for the kinetic assays were 20 μM h-IAPP or rat IAPP, and 20 μM sRAGE.
Transient kinetic species of h-IAPP were characterized by TEM. TEM images confirm the presence or absence of amyloid which were indicated by thioflavin-T fluorescence. Aliquots (4 μl) were removed from the reaction mixtures monitored by thioflavin-T assays, placed on a carbon-coated 200-mesh copper grid and negatively stained with saturated uranyl acetate. The samples were imaged with a Philips CM12 transmission electron microscope at the New York University electron microscopy core facility. Final solution conditions contained 16 mM tris HCl (pH 7.4). The peptide concentrations for the kinetic assays were 20 μM h-IAPP and 20 μM sRAGE.

[6] = system: mouse aortic smooth muscle cells; assay: AlamarBlue cell viability assay of aortic smooth muscle cells; assay type: cell-based; details: added before time point of toxic species formation
Description: as §1, with “Mouse vascular SMCs were cultured from the aortas of 10-week-old male mice using a modification of the procedure of Tarvo and Barret. See Tarvo et al. Blood Vessels. 1980; 17:110-116. SMCs were cultured following an explant protocol in accordance with institutional guidelines. Cultures were composed of 95% SM-α-actin positivity based on immunostaining. Cyto-toxicity” for “Cyto-toxicity”

## sRAGE: soluble extracellular domain of RAGE, SEQ ID NO: 18, made in a baculovirus expression system using Sf9 cells
[1]; added to h-IAPP at 1:1 molar ratio before toxic species formation, 5 hrs incubation
  inhibition of h-IAPP toxicity to β-cells: protects transformed rat INS-1 β-cells from toxicity
[1]; sRAGE alone, 20 uM
  toxicity by itself: is not toxic by itself
[2]
  viability restored, relative to buffer control: 80%
  viability restored, relative to sRAGE by itself: 100%
[3]; 1:1 molar ratio with h-IAPP, 5 hrs incubation
  effect on MCP-1 and IL-1β mRNA up-regulation induced by h-IAPP intermediates: prevents upregulation of MCP-1 and IL-1β mRNA expression
[3]; sRAGE alone, 20 uM
  MCP-1 and IL-1β mRNA up-regulation by itself: does not induce up-regulation of these pro-inflammatory biomarkers
[4]
  protective effects of sRAGE in the presence of anti-RAGE IgG: are not affected
[5]; 1:1, added before or at very early time points of toxic species formation, after two weeks of additional incubation
  h-IAPP amyloid formation (TEM): complete inhibition of h-IAPP amyloid formation
[5]; 1:1, added before time points of toxic species formation
  β-sheet formation by h-IAPP (difference CD): inhibition of β-sheet formation by h-IAPP
[5]; 1:1, added to amyloid fibrils
  effect on h-IAPP secondary structure when added to amyloid fibrils: no effect is observed
[5]; 1:1 molar ratio, added before the midpoint of the reaction
  h-IAPP amyloid formation (thioflavin-T, TEM): inhibits amyloid formation
[5]; added after the mid-lag phase
  kinetics of h-IAPP amyloid formation (thioflavin-T): does not prevent amyloid formation
[5]; added before the midpoint of the lag phase
  kinetics of h-IAPP amyloid formation (thioflavin-T): inhibits h-IAPP amyloid formation
[5]; added after time points of toxic species formation
  h-IAPP amyloid formation: no effect on h-IAPP amyloid formation is seen
[5]; added at later time points of toxicity
  h-IAPP beta sheet structure and amyloid formation: significant reductions in h-IAPP beta sheet structure and amyloid formation
[6]
  inhibition of h-IAPP toxicity to smooth muscle cells: blocks smooth muscle cell toxicity
